Values of other authors as cited in publication PMC5647227 (ACS chemical neuroscience, 2017).

Chains of the proteins cited; added tags and fusions are not shown.
UniProt P25103, whole entry: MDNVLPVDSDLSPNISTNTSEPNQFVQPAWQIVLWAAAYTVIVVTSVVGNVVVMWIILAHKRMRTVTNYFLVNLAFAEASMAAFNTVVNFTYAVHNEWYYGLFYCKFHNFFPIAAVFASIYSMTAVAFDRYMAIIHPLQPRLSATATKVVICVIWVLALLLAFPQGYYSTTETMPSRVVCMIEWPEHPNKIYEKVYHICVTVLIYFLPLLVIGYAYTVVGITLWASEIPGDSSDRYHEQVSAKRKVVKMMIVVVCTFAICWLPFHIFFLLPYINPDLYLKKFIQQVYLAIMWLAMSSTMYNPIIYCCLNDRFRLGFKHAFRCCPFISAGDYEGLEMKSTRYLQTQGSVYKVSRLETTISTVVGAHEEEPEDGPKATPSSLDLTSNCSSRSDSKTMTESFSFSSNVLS

Biological target: hNK1 receptors (Homo sapiens, UniProt P25103)
Conditions: antagonism of substance P, Schild's equation; ref Ballet et al.[1]; cited from earlier work

## H-Dmt-D-Arg-Aba-Gly-NMe-3′,5′-(CF3)2-Bn [Compound 3]
  NK1R pA2: 7.80
